ChEMBL document CHEMBL1255228 (J Med Chem, 2010)

By UniProt entry, the sequences of proteins in these tests, tags left out. Where a name states a change or a piece, a line headed by the entry shows the natural chain unless it says otherwise.
UniProt P47936: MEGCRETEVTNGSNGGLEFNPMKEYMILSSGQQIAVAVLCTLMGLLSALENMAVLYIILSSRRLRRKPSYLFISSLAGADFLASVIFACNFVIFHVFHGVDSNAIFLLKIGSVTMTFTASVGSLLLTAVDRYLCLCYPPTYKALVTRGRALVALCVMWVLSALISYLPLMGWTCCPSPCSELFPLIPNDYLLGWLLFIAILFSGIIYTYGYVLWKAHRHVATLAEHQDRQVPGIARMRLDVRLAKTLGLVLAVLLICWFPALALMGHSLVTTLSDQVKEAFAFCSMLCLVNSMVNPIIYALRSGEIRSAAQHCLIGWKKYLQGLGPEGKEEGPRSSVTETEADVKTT
UniProt P34972, whole entry: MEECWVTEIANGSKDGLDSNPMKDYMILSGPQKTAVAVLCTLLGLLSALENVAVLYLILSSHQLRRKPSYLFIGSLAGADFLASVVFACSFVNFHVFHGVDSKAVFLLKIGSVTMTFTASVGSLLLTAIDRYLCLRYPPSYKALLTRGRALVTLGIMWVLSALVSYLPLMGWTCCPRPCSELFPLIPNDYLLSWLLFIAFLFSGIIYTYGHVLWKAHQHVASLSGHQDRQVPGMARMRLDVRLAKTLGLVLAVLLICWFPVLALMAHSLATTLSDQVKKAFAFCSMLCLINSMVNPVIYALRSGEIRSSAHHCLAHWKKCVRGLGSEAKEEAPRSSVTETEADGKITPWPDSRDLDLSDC

What was measured:
[1] = target: Cannabinoid receptor 2 (Mus musculus, UniProt P47936); assay: Displacement of [3H]CP55940 from mouse spleen CB2 receptor; format: tissue-based
Procedure, shortened: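 CB2 sites from frozen mouse spleen membrane preparation; [3H]CP-55,940 displacement, filtered over GF/B with 0.5% BSA in wash buffer, scintillation counting. Ki by nonlinear regression from three independent experiments run in duplicate, mean of three values.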

[2] = target: Cannabinoid receptor 2 (Homo sapiens, UniProt P34972); assay: Displacement of [3H]CP55940 from human CB2 receptor expressed in HEK293 cells; format: cell-based
Procedure, shortened: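 Membranes from HEK293 cells expressing human CB2; displacement of [3H]CP-55,940 in 96-well filter format, GF/B filtration with 0.5% BSA in wash buffer, scintillation counting. IC50 from displacement, Ki by nonlinear regression; three independent experiments in duplicate, mean reported.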

CC1(C)Oc2cc(C3(CCCCCBr)CCC3)cc(O)c2[C@@H]2C[C@H](O)CC[C@H]21
Ki [1]: 2.76 nM | Ki [2]: 1.62 nM

CC1(C)Oc2cc(C3(CCCCCBr)CCC3)cc(O)c2[C@@H]2C[C@@H](O)CC[C@H]21
Ki [1]: 1.67 nM | Ki [2]: 1.63 nM
